# Yeast mating assay B: variants of the scFv Ab-14

Source: Li et al. 2023 (doi:10.1038/s41467-023-39022-2), MIT Lincoln Laboratory and A-Alpha Bio; data file from the FLAb repository.

Target: peptide PDVDLGDISGINAS, taken from heptad repeat 2 (HR2) of SARS-CoV-2 spike.

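Phage display of a naive human antibody library on the peptide gave the parent. These sequences belong to a second round, designed from the earlier measurements on random variants of the parent. Group labels follow the data file (Ctrl: baseline library sampled from a position-specific scoring matrix, with some repeated check sequences; GP: Gaussian process model; HC: hill climbing; a sequence that several methods proposed may carry one label only). The assay is AlphaSeq: two haploid yeast populations carry antibody and antigen on their surface. Mating (16 h, 30 °C) was followed by selection of diploids and sequencing of their barcodes. Read counts were normalised to the haploid input and turned into Kd by a linear fit to BCL2-family pairs of known affinity, for each replicate. Each pool was mated in six replicate cultures.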

Ab-14 is the parent antibody, in scFv form: VH, then three GGGGS repeats, then VL. The heavy chain is unchanged in all variants.
VH: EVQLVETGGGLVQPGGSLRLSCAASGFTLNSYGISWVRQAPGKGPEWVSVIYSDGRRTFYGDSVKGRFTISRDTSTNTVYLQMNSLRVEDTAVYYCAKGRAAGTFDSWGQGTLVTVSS
VL: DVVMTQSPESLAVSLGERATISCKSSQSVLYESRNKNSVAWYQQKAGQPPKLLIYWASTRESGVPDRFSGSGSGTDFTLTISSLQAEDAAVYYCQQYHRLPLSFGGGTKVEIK

Each variant is given by its three light chain CDRs, as the data file delimits them; those of the parent are KSSQSVLYESRNKNSVA, WASTRES, QQYHRLPLS.
Values are log10 of the apparent Kd in nM; lower means stronger binding.
Where no diploid with the target was found in that replicate, the entry reads "nd": below detection, most likely a poor binder, though not proof of it.

With KSSQSVVYEPRNKNSVA, NASTRES, QQWHRLPLS [Ctrl] the result was nd, nd, nd, nd, nd, nd (controls 1 of 18).
With KSSQLVLYESRNKNSVA, WASTRES, QQYHRLPLS [Ctrl] the result was nd, 2.15, nd, 1.40, 4.54, 2.68 (controls 0 of 18).
With KSSQSCLYESRNKNSVA, WAMTRES, QQYDRLPLS [Ctrl] the result was nd, nd, nd, nd, nd, nd (controls 0 of 18).
With KVSQSALYESRNKNSVA, WASTRES, QQYHRLPLS [Ctrl] the result was 0.59, 0.37, 0.15, -0.11, 0.50, 0.54 (controls 0 of 18).
With KISQPVLYESENFNSVA, WASTRES, QQYHRTPLS [Ctrl] the result was 3.02, 3.41, nd, 3.17, nd, nd (controls 1 of 18).
With KLSQSVLYESRNKNSVA, DASTRES, QQYHRLPLS [Ctrl+GP_HC] the result was -0.28, -0.31, -0.40, -0.55, -0.48, -0.29; -0.40, -0.63, -0.59, -0.76, -0.68, -0.45 (controls 1 of 36).
With FISQSVLYESRNKNSVA, WASTRES, QQYHRLPLS [Ctrl] the result was 1.34, 1.51, 1.25, 1.95, 1.40, 1.60 (controls 1 of 18).
With KSSQSVLYESRDKNSVA, WASLRES, QQYHRLPLS [Ctrl] the result was nd, nd, nd, nd, nd, nd (controls 1 of 18).
With KSSQLHLYESSNKNSVA, WASTRES, QQYHRLPLD [Ctrl] the result was nd, nd, nd, nd, 2.01, nd (controls 1 of 18).
With KCSSSVLYESRNKNSVA, WASTRES, QQYHRLPLS [Ctrl] the result was nd, 0.75, nd, 1.34, 1.42, 0.42 (controls 0 of 18).
With KQSQSVLYESRNKNQVA, WASTREV, QQYHRLPLS [Ctrl] the result was 2.73, 2.13, 2.44, 2.07, nd, nd (controls 1 of 18).
With KSSMSVLYESRNKNSVA, WASTRES, PQYHRLPLS [Ctrl] the result was nd, nd, nd, nd, nd, nd (controls 1 of 18).
With KSSTSVLYESRNKNSVA, WAFTRES, QQYHRLPLS [Ctrl] the result was nd, 2.15, nd, nd, nd, nd (controls 0 of 18).
With KSSHSVLYESRNKNSVA, WASTRES, QQPHRLPLS [Ctrl] the result was nd, nd, 1.68, nd, nd, nd (controls 0 of 18).
With KSSQSVTYESRNKNSVA, WASTRES, QQYHRLSLD [Ctrl] the result was nd, nd, nd, nd, nd, nd (controls 0 of 18).
With KMDQSVLYYSNNKKSVA, NASTREM, QQYHRLPLS [Ctrl] the result was 0.62, 0.29, 0.36, 0.15, 0.21, 0.78 (controls 1 of 18).
With WSSQSVLYESVNKNSVA, WASTREK, QQYHRLPLS [Ctrl] the result was nd, nd, nd, nd, nd, nd (controls 0 of 18).
With HYSQSVLYESRNKNSVA, MASTRES, QQYHRLPLS [Ctrl] the result was 1.42, 0.70, 0.87, 1.23, 1.29, 1.11 (controls 1 of 18).
With KSWQMVLYESRNKNSVA, WASTRES, QQYHRLPLS [Ctrl] the result was 1.71, nd, nd, nd, nd, 1.68 (controls 1 of 18).
With KSSQSVLFESRNKNSVA, SASTRES, QQYHRLPLS [Ctrl] the result was 0.59, 1.01, 0.45, 0.68, 1.06, 0.76 (controls 1 of 18).
With KSSQSYLYESRNKNSVA, QASTRES, QQYHRLPLS [Ctrl] the result was 0.04, 0.18, 0.37, -0.03, 0.24, 0.30 (controls 0 of 18).
With KSSQSELYESRNKNSVA, WASTRES, QQYHRLPLP [Ctrl] the result was nd, nd, nd, nd, nd, nd (controls 0 of 18).
With KSSQSWLYESRNTNSVA, NASTRES, QQYHRLILS [Ctrl] the result was nd, nd, nd, nd, nd, nd (controls 0 of 18).
With KSSQSVLYEVRNENSVA, WAYIRVS, QQYHRLPLS [Ctrl] the result was nd, nd, nd, nd, nd, nd (controls 0 of 18).
With KASQSVLYESRNKNSVA, WASTRES, QQYHRLPLS [Ctrl] the result was nd, 2.07, 2.17, nd, nd, 2.99 (controls 1 of 18).
With KCSQSVMYESRNKNSVA, KASTRES, QQYHRLPLF [Ctrl] the result was nd, nd, nd, nd, nd, nd (controls 0 of 18).
With KSNQSVLYESNFKNSVA, SASTRES, QQYHRLPLS [Ctrl] the result was 1.25, 0.95, 1.42, 1.38, 1.16, 1.39 (controls 0 of 18).
With KSMQSVLYESRNKNSVA, WANTRES, QQYHILPLS [Ctrl] the result was nd, nd, nd, nd, nd, nd (controls 0 of 18).
With KSSQSVLYESNNKNSVA, WASTRES, QQYHRLPLS [Ctrl] the result was 1.87, 1.89, 1.11, 1.81, 1.54, 1.30 (controls 0 of 18).
With KSSQSVLIESRNKNSVA, QASTRES, QQYHRLPLS [Ctrl] the result was 0.62, 0.69, 0.62, 0.48, 0.61, 0.85 (controls 0 of 18).
With KSSQSVMEESRNKNSIA, WVTTRES, QQYHRLPLS [Ctrl] the result was nd, nd, nd, nd, 3.18, 3.76 (controls 2 of 18).
With KSSQSVLYESRNKNSVA, KVSTRES, QQYHRLPLS [Ctrl] the result was 2.10, 1.46, 1.65, 2.82, 1.01, 2.10 (controls 0 of 18).
With KSSQSDLYESRNEHSVA, WHSTRES, QQYHHLPLS [Ctrl] the result was nd, nd, nd, nd, nd, nd (controls 0 of 18).
With KSSQSVLYESCNKNSVA, AASTRES, FQYHRLPLS [Ctrl] the result was nd, nd, nd, nd, nd, nd (controls 1 of 18).
With KSSQSVLNESRNKNSVA, EASTRES, QQYHRLPLW [Ctrl] the result was 1.42, 1.15, 1.17, 0.59, 0.63, 1.13 (controls 0 of 18).
With SSSQSVLYESRNKNSVA, CASTREV, NQYHRLPLS [Ctrl] the result was nd, nd, nd, nd, nd, nd (controls 0 of 18).
With KLSQSVLYESRNKNSVA, WASTRES, QQYARLPLS [Ctrl] the result was 2.29, 1.49, 1.06, 1.54, 1.42, 1.86 (controls 0 of 18).
With KSSQSVLYESRNKNNVA, WASTRES, VQYHRLPLS [Ctrl] the result was nd, nd, nd, nd, nd, nd (controls 0 of 18).
With KSSQSGLYESRNKNSVA, WAMTRES, QWYKRLPLS [Ctrl] the result was nd, nd, 1.57, nd, nd, 1.87 (controls 0 of 18).
With KSSQSVLYESRNKNSVA, KASTRES, QQYVRLPLS [Ctrl] the result was nd, 1.23, nd, 2.25, 0.33, 1.72 (controls 0 of 18).
With KMSNSVLHECRNKNSVA, EASTREA, QQYHRLPLS [Ctrl] the result was 0.51, 0.40, 0.50, 0.09, 0.23, 0.27 (controls 1 of 18).
With KSSQSVLYESRNKNSVA, RASTRPS, QQYHRLPLS [Ctrl] the result was nd, 1.31, 1.80, nd, 1.82, 1.56 (controls 0 of 18).
With KSSQSVYYLSRNKNSVA, AASTRES, QQYHRLPLS [Ctrl] the result was 1.29, 1.78, 1.59, 1.52, 2.11, 1.50 (controls 0 of 18).
With KSSQSVLDESRNKESIA, HASTRES, QSYHRLPLS [Ctrl] the result was 0.53, 0.44, 0.42, 0.65, 0.00, 0.18 (controls 1 of 18).
With KSSQSVLYESRNKNSVA, WASTNES, QQYARLPLS [Ctrl] the result was nd, nd, nd, nd, nd, nd (controls 1 of 18).
With KSSQSMLDESRNCNSVA, WASTRES, QQYHRLPLS [Ctrl] the result was 1.50, 1.20, 2.33, 2.26, 1.30, 1.83 (controls 1 of 18).
With KSSQSVLYESRNTNSVA, AASTRES, QQYHMLPLS [Ctrl] the result was 1.08, 0.71, 0.64, 0.49, 0.41, 1.03 (controls 0 of 18).
With KLSQSVLKESRNKNSIA, WASTRES, QQYHRLPLQ [Ctrl] the result was 0.68, 0.88, 0.85, 0.68, 0.62, 0.78 (controls 1 of 18).
With KSSHSVGYESRNKNSVA, WASTREW, QQYHVLPLS [Ctrl] the result was nd, nd, nd, 2.74, 3.16, 3.08 (controls 1 of 18).
With KSSQSSAYESRNKNSVA, YASTRES, QQYARLPLS [Ctrl] the result was 0.55, 0.16, 0.41, 0.21, 0.28, 0.35 (controls 0 of 18).
With KSSQSVLYESYNSNSVA, WASTRES, QQDHRLPLS [Ctrl] the result was nd, nd, 1.44, nd, nd, nd (controls 0 of 18).

Three control strains display no target. For all light chain designs, 4% of the pairings with them gave a signal, with a median of 2.64 and one signal in twenty below 1.59, so weak values seen in few replicates may be background. For each scFv, signals with the empty controls are counted beside the result.
A sequence that the file lists under several names has all its replicates listed entry by entry, parted by semicolons.
A sequence measured in both rounds can read differently, since the two assays cover different ranges.
In the paper, a design with two or fewer of six values counts as a poor binder.